This assay addresses RCC1-like G exchanging factor-like protein (UniProt Q96I51). The assay is described as follows: cross-link between two proteins; cross-linking mass spectrometry.

This is one part of the list.

In the case of “Malate dehydrogenase, mitochondrial, P40926”, the “listed as a hit” value is recorded as “yes”.

These data come from publication PMC11024108.
